Drawing on PubChem BioAssay AID1662 (Broad Institute, 2009), this text covers inhibition for one compound.

The structures appear in SMILES notation. The list shows a part of the results, in another mix than the full data. Calls of active or inactive are those of the source.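 The calls were made as follows: active = mean replicate score, as percent of positive control median, at least 50; inconclusive = mean below 50 but one replicate at or above 50; inactive = mean and every replicate below 50.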

A short description of the experiment: kanamycin survival loss of SKKanGAS strain – BacTiter-Glo luminescence, streptokinase expression inhibitor project, primary screen (AID 1662).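 Also: strain carries kanamycin resistance gene driven by streptokinase promoter and grows in 40 µg/ml kanamycin; loss of luminescence reflects streptokinase promoter inhibition or plain growth inhibition; 0% = median of DMSO wells and 100% = positive control at its reference dose.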 The note with it: S. pyogenes SKKanGAS, kanamycin growth, 6 h, at 7.5 µM, active compounds read high.
Consider `CN(C)C(=N)N=C(N)N`, for which the inhibition (commonly how much of the control response was suppressed) is active: 71%.
